{"source": "patent US20080063599A1", "about": "“Compounds Which Can Be Used To Diagnose And Monitor Diseases Associated With The Formation Of Amyloid Protein Fibrils” (priority 2002, published 2008)", "key": {"[1]": {"test_system": "amyloid plaques of the mice brains", "assay": "Quantitative autoradiography in transgenic mice and control mice", "assay_type": "in vivo", "settings": "intravenous injection via the jugular vein; brains removed after 2, 4, 6 hours; Tg2576 and control mice", "experimental": "The 5-chloro-8-hydroxy-7-[^123I]iodoquinoline radioactive derivative is injected in transgenic mice (Tg2576) and control mice via the jugular vein under anaesthesia using a 30 g syringe. A series of controls and transgenic mice are examined. After 2, 4, 6 hours of the intravenous injection, the brains-of each mouse are removed, they are quickly cooled with dry ice and dissected using a Mokron HM 505E cryostat apparatus, placing them on glass sheets and drying them at room temperature. For the film autoradiography the sheets are placed in a MICROM optical densitometer obtaining greyscale images of the distribution of the radiopharmaceutical in the histological sections. Measured optical density is expressed as a percentage (%) of the maximum."}, "[2]": {"test_system": "amyloid plaques in the mice brains", "assay": "SPECT images of transgenic mice", "assay_type": "in vivo", "settings": "Tg2576 mice; injected via the tail vein; images 4.5 hours after administration", "experimental": "The study was performed using transgenic mice (Tg2576) in groups of 5 animals for each time value. The tracers (with SPECT-detectable radionuclides) (1-5 uCi) dissolved in 100 uL of PBS or in the appropriate solvent were injected via the tail vein.\nSPECT images were obtained after 4.5 hours from the administration of the 5-chloro-8-hydroxy-7-[123I]iodoquinoline tracer by means of a double-head camera (MULTISPECT II, Siemens Medical Systems) equipped with parallel low energy high resolution collimators, using an energy window centred on the photopeak energy of the corresponding radionuclide (159 KeV for 123I).\n^57Co sources were used which were placed on the head of the animal in order to aid reconstruction by means of anatomical references. 120 projections were obtained in a 360 degree turn, acquired in a 64×64 matrix. Two simultaneous acquisitions are performed, one using a window of 20% of the energy centred at 159 KeV for ^123I and another of 4% of the energy centred at 122 KeV for the ^57Co labels. Total exploration time was about 40 minutes. The SPECT images were reconstructed using a filter-back projection algorithm. The attenuation correction was performed using the Chang algorithm.\nThe semiquantitative analysis of the uptake was performed comparing the average/pixel counts in the region of interest with the average/pixel counts in control regions. […]"}}, "data": [{"smiles": "Oc1c([123I])cc(Cl)c2cccnc12", "note": "[5-chloro-8-hydroxy-7-[^123I]iodoquinoline]", "values": [{"measurement": "detection of amyloid plaques in film autoradiography images of brain sections", "setting": "[1]", "result": "optimal detection of amyloid plaques"}, {"measurement": "distribution of amyloid plaques in SPECT images", "setting": "[2]", "result": "showed the distribution of the amyloid plaques"}]}]}
